Measurements from PubChem BioAssay AID651572 (The Scripps Research Institute Molecular Screening Center, 2012).
This is a selection; strong and weak results do not stand in their true shares. The source made the active and inactive calls.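 Rule for the calls: active = inhibition above a per-plate limit, mean inhibition of low control wells plus 3 SD (cut at about 25% in these data); inactive = the rest.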

Amino acid sequences for entries named in this document (tags omitted).
UniProt Q62848, whole entry, looked up: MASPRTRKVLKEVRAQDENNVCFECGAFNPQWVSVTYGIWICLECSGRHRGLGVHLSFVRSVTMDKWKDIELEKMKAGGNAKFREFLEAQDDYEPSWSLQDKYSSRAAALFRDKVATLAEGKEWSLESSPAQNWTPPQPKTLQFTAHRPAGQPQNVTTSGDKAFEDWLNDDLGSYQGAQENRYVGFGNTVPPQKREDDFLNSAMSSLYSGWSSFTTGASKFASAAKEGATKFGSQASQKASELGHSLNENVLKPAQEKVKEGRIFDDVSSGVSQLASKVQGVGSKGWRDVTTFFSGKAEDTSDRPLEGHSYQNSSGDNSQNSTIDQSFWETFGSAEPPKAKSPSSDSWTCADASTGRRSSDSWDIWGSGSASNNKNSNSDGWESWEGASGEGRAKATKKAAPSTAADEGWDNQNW

These compounds were tested against ADP-ribosylation factor GTPase-activating protein 1 (Rattus norvegicus) (UniProt Q62848) (assay: blockers of ARFGAP1-stimulated ARF1 GTP hydrolysis – biochemical, fluorescence polarization, GDP tracer, primary screen (AID 651572;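 note: 0% = DMSO wells with enzyme and 100% = wells lacking Arfgap1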)). Settings: GDP FP detection, at 16.5 µM, active compounds read high.
Method in brief: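 Material – truncated rat Arfgap1 GAP domain · Buffer or medium – HEPES-based buffer, pH 7.5 · Reagent – human ARF1(Δ1-17)-GTP substrate · Dosing – 16.5 µM single point, 1.26% DMSO · Schedule – GTP hydrolysis reaction 2 h at 25 °C · Technique – GDP detection by fluorescence polarization · Benchmarks – No-Arfgap1 wells (100%) versus DMSO full-reaction wells (0%) · Repeats – single replicate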
With `O=C(O)C(=O)c1ccc(N(CCCl)CCCl)cc1` the inhibition was inactive: 4.91%.
With `CCOC(=O)c1ccc(NC(=O)C(C)(CCl)SC)cc1` (centres undefined) the inhibition was inactive: -2.72%.
`O=C(OC1CN2CCC1CC2)c1cccc([N+](=O)[O-])c1` (centres undefined) was tested, and the inhibition was inactive: -1.39%.
`CCC(C)N(CC(C)C)C(=S)SC(NC(C)=O)C(Cl)(Cl)Cl` (centres undefined) was tested, and the inhibition was inactive: 0.42%.
With `O=C(OC1CN2CCC1CC2)C12CC3CC(CC(C3)C1)C2` (centres undefined) the inhibition was inactive: -7.19%.
With `Cc1cc(=O)[nH]c(N[N+](=O)[O-])n1` the inhibition was inactive: 2.35%.
In the case of `Cc1c2c(nc3ccccc13)SC(C(Cl)Cl)C2` (centres undefined), the inhibition is reported as inactive: -7.69%.
With `COc1ccc2nc(NP(=O)(c3ccccc3)c3ccccc3)sc2c1` the inhibition was inactive: 0.7%.
For `COc1cc(I)ccc1[As](=O)(O)O`, the inhibition was inactive: -7.5%.
With `O=P1(N(CCCl)CCCl)Nc2ccccc2N1` the inhibition was inactive: 6.29%.
In the case of `O=P1(N(CCCl)CCCl)OCCCN1CCCl` (centres undefined), the inhibition is reported as inactive: 2.95%.
In the case of `COc1ccc(N/C(=N/P(=O)(N2CCOCC2)N2CCOCC2)N2CCOCC2)cc1`, the inhibition is reported as inactive: 3.14%.
`O=[N+]([O-])c1cc(Oc2ccc([N+](=O)[O-])cc2C(F)(F)F)cc([N+](=O)[O-])c1` was tested, and the inhibition was inactive: 2.87%.
With `C[As](=O)(O)c1cccc(C(=O)O)c1` the inhibition was inactive: 5.18%.
For `O=[As](O)(c1ccc(O)cc1)c1ccccc1O`, the inhibition was inactive: 2.04%.
In the case of `O=[N+]([O-])c1ccc(-c2cc([N+](=O)[O-])c(O)c([N+](=O)[O-])c2)cc1`, the inhibition is reported as inactive: 6.05%.
For `COc1cc(C(=O)NCC2(N3CCOCC3)CCCCC2)ccc1OCC(C)C`, the inhibition was inactive: 5.68%.
`Cc1ccc2nc3c(c(C)c2c1)CC(C(Cl)Cl)S3` (centres undefined) was tested, and the inhibition was inactive: -9.95%.
`Cc1ccc(OP(=O)(Nc2ccc([N+](=O)[O-])cn2)Oc2ccc(C)cc2)cc1` was tested, and the inhibition was inactive: 0.32%.
`[N-]=[N+]=NC1CCCCC1NC(=O)c1cc([N+](=O)[O-])cc([N+](=O)[O-])c1` (centres undefined) was tested, and the inhibition was inactive: 5.78%.
In the case of `COC(=O)C1(C)COP(=O)(N2CCCCCC2)OC1` (centres undefined), the inhibition is reported as inactive: -9.21%.
For `CC(C)c1ccc(OP(=O)(Nc2ccccn2)Oc2ccccc2F)cc1` (centres undefined), the inhibition was inactive: 10.4%.
With `ClCCSc1nnc(-c2cccnc2)o1` the inhibition was inactive: -13.4%.
For `CC(C)NC(=O)NP(=O)(Oc1ccccc1)Oc1ccccc1`, the inhibition was inactive: -5.02%.
`CCN(CC)C(=S)SC(NC=O)C(Cl)(Cl)Cl` (centres undefined) was tested, and the inhibition was inactive: -9.56%.
For `O=C(OC1CN2CCC1CC2)c1cccc2[nH]cnc12` (centres undefined), the inhibition was inactive: 0.47%.
With `CCOP1(=S)c2c(C)nn(CCC#N)c2N=C(c2ccccc2F)N1C` (centres undefined) the inhibition was inactive: 0.14%.
In the case of `O=P(Nc1nccs1)(Oc1ccccc1)Oc1ccccc1`, the inhibition is reported as inactive: -0.66%.
With `O=C(O)COc1ccc([As](=O)(O)O)cc1[N+](=O)[O-]` the inhibition was inactive: 8.42%.
With `Nc1ccccc1[As](=O)(O)c1ccccc1` the inhibition was inactive: -2.61%.
For `NC(=O)Nc1ccc([As](=O)(O)O)cc1`, the inhibition was inactive: 3.99%.
`O=[N+]([O-])c1ccc2c(c1)nnn2O` was tested, and the inhibition was inactive: 2.94%.
For `CN(C)C(=O)c1cc([N+](=O)[O-])cc2c1-c1c(cc([N+](=O)[O-])cc1[N+](=O)[O-])C2=O`, the inhibition was inactive: -2.64%.
In the case of `CN(C(=O)Cc1ccc(Cl)c(Cl)c1)[C@H]1CC[C@@]2(CCCO2)C[C@@H]1N1CCCC1`, the inhibition is reported as inactive: -13%.
For `N#CCCN(C(=O)COC(=O)C(O)(c1ccccc1)c1ccccc1)c1ccc(F)cc1`, the inhibition was inactive: -7.24%.
With `CCOP1(=S)c2c(C)nn(CCC#N)c2N=C(c2ccc(F)cc2)N1C` (centres undefined) the inhibition was inactive: -7.77%.
In the case of `CN(C(=O)Cc1ccccc1)[C@@H]1CC[C@]2(CCCO2)C[C@H]1N1CCCC1`, the inhibition is reported as inactive: -8.69%.
For `O=[As](O)(O)c1cccnc1`, the inhibition was inactive: -9.83%.
`COc1cc(C(=O)NCC2(N3CCOCC3)CCCCC2)cc(Cl)c1OC(C)C` was tested, and the inhibition was inactive: -5.02%.
In the case of `CS(=O)(=O)c1ccc(Cl)c(NC(=O)COC(=O)C(O)(c2ccccc2)c2ccccc2)c1`, the inhibition is reported as inactive: 6.78%.
In the case of `O=C(OC1CN2CCC1CC2)c1ccc(Cl)cc1` (centres undefined), the inhibition is reported as inactive: -2.36%.
For `Cc1cccc(OCC(=O)OC2CN3CCC2CC3)c1` (centres undefined), the inhibition was inactive: 10.7%.
In the case of `O=[As](O)(c1cccc(O)c1)c1cccc(O)c1`, the inhibition is reported as inactive: 9.58%.
With `CCCOP(=S)(Nc1nc(N)cc(=O)[nH]1)OCCC` the inhibition was inactive: 6.53%.
`Cc1ccc(NCCc2c([N+](=O)[O-])cc([N+](=O)[O-])cc2[N+](=O)[O-])cc1` was tested, and the inhibition was inactive: 0.53%.
`Nc1cccc2c([As](=O)(O)O)cccc12` was tested, and the inhibition was inactive: -3.49%.
With `COc1cc(C2NCCC3(OCCO3)C2(C)C)cc(OC)c1OC` (centres undefined) the inhibition was inactive: -4.88%.
`CCOP(=O)(Nc1cccc2ccccc12)OCC` was tested, and the inhibition was inactive: -5.1%.
`CCOP(=O)(Nc1ccc(C)cn1)OCC` was tested, and the inhibition was inactive: 3.36%.
In the case of `CN(CCCl)Cc1cc(Cl)c(NC2=NCCN2)c(Cl)c1`, the inhibition is reported as inactive: 9.06%.
With `CCC1=CC2Cc3nc4ccc(Cl)cc4c(N)c3C(C1)C2` (centres undefined) the inhibition was inactive: 8.51%.
In the case of `O=P1(Nc2ccccn2)COc2ccccc2OC1`, the inhibition is reported as inactive: 12.5%.
`CCOP(=O)(NC(=NC(C)c1ccccc1)NC(C)c1ccccc1)OCC` (centres undefined) was tested, and the inhibition was inactive: 1.32%.
`Clc1n[nH]nc1-c1nn[nH][15n]1` was tested, and the inhibition was inactive: -0.67%.
For `O=P1(N(CCCl)CCCl)NCCC(C(F)(F)F)O1` (centres undefined), the inhibition was inactive: 3.39%.
For `CC(C)(C)C(=O)NC(Sc1ncccn1)C(Cl)(Cl)Cl` (centres undefined), the inhibition was inactive: -2.53%.
`COc1ccccc1CNC(=O)COC(=O)C(O)(c1ccccc1)c1ccccc1` was tested, and the inhibition was inactive: 8.95%.
For `CC1(CBr)Cn2c(nc3ccccc3c2=O)S1` (centres undefined), the inhibition was inactive: 2.63%.
In the case of `CN(C(=O)Cc1ccc(Cl)c(Cl)c1)[C@@H]1CCCC[C@H]1N1CCCC1`, the inhibition is reported as inactive: 8.21%.
For `CC(C)/C=N\N=C(\N)N[N+](=O)[O-]`, the inhibition was inactive: -8.78%.
For `CN(C(=O)Cc1ccc(Cl)c(Cl)c1)C1CCCC[C@@H]1N1CCCC1` (some centres undefined), the inhibition was inactive: -3.7%.
For `Cc1nn(-c2ccccc2)c2c1P(=O)(N1CCOCC1)N(C)C(c1ccccc1)=N2` (centres undefined), the inhibition was inactive: -4.73%.
`Cc1ccc(C(=O)OC2CN3CCC2CC3)cc1` (centres undefined) was tested, and the inhibition was inactive: -2.67%.
In the case of `CC1CCC(C(C)C)C(OP(=O)(Nc2ccccn2)c2ccccc2)C1` (centres undefined), the inhibition is reported as inactive: -8.46%.
In the case of `O=C(/C=C/c1ccccc1)OC1CN2CCC1CC2` (centres undefined), the inhibition is reported as inactive: -0.32%.
`CCCC1OP(=O)(Nc2ccccc2)OCC1CC` (centres undefined) was tested, and the inhibition was inactive: 4%.
`CN(C)C1(CNC(=O)c2ccc(S(C)(=O)=O)cc2)CCCCC1` was tested, and the inhibition was inactive: 1.01%.
With `O=P1(Nc2ncccn2)COc2ccccc2OC1` the inhibition was inactive: 1.6%.
In the case of `Cc1ccc(S(=O)(=O)N(CCCN)CCCc2c(C)nc(N)[nH]c2=O)cc1`, the inhibition is reported as inactive: 3.43%.
For `Cc1ccc(OCC(=O)OC2CN3CCC2CC3)cc1` (centres undefined), the inhibition was inactive: 1.9%.
For `O=[As](O)(c1cccs1)c1cccs1`, the inhibition was inactive: 21.9%.
In the case of `NS(=O)(=O)c1cccc(NC(=O)COC(=O)C(O)(c2ccccc2)c2ccccc2)c1`, the inhibition is reported as inactive: 5.91%.
In the case of `O=P1(Nc2ccc(Br)cn2)COc2ccccc2OC1`, the inhibition is reported as inactive: -3.39%.
`Nc1cccc([As](=O)(O)c2ccccc2)c1` was tested, and the inhibition was inactive: 8.64%.
